Tests used:
CHO = experiment: Ratio of AC50 for ProLink-tagged D3 receptor (unknown origin) expressed in CHO cells to AC50 for ProLink-tagged D2 receptor (unknown origin) expressed in CHO cells by beta-arrestin assay; format: cell-based; settings: Homo sapiens
HEK293 = experiment: Ratio of Ki for human D3 receptor expressed in HEK293 cell membrane to Ki for human D2L receptor expressed in HEK cell membrane; format: cell-based
How it was run: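 Competition binding with [3H]methylspiperone on membranes from stable HEK cells. […] Incubation 90 min at room temperature in EBSS with sodium metabisulfite, nonspecific binding with 4 µM (+)-butaclamol, then GF/C filtration and scintillation counting. Ki from IC50 via Cheng–Prusoff.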

Mus musculus = experiment: Ratio of drug level in brain to plasma in C57BL/6 mouse at 30 mg/kg, ip administered as single dose

Compound	Ratio (CHO)	Ratio Ki (HEK293)	BPR (Mus musculus)
CN1C(=O)c2ccccc2[S@+]([O-])c2ccc(C(=O)NCCc3cccs3)cc21	17.8	41	0.181
CN1C(=O)c2ccccc2[S+]([O-])c2ccc(C(=O)NCCc3cccs3)cc21 (racemic)	22.3	48.4	–

Source: ChEMBL document CHEMBL3232915, “Discovery, optimization, and characterization of novel D2 dopamine receptor selective antagonists” (J Med Chem, 2014)
